Measurements from patent US12083102B2, “Method for treating inflammatory disorders” (DIMERIX BIOSCIENCE PTY LTD, priority 2011, dated 2024).

Sequences of proteins named here, by UniProt entry; tags and fusion partners are left off.
UniProt P41597, whole entry: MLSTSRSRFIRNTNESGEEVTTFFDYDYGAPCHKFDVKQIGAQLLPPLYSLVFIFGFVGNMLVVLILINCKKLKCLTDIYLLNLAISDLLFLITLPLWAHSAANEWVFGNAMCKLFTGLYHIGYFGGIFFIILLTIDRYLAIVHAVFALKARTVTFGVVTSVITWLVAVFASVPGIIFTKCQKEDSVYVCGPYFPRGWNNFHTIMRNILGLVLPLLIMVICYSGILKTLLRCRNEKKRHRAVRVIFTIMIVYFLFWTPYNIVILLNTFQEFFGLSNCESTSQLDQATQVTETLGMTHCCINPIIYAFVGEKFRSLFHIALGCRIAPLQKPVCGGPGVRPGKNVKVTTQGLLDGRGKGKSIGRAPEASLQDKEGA

Legend:
CCR2-Rluc8 [1] = biological target: T1, CCR2-Rluc8 (Homo sapiens, UniProt P41597); assay type: cell-based; parameters: expressed in transfected cells; host or cells: HEK293FT; details: HEK293FT cells; antagonist 10 μM, 30 min pre-incubation; 100 nM MCP-1; FIG. 5 top
Source text: Data represent mean±SEM of three independent experiments performed in triplicate.
HEK293FT cells were transiently transfected with plasmids coding for β-arrestin2-Venus and the indicated receptors: CCR2-Rluc8 (top panel), AT1R-Rluc8 (middle panel) or AT1R-Rluc8 and the untagged CCR2 (bottom panel).

CCR2-Rluc8 [2] = biological target: T1, CCR2-Rluc8; details: HEK293FT cells, no AT1R, FIG. 7 top; for MCP-1-induced BRET response, CCR2-Rluc8 and β-arrestin2-Venus: antagonist 10 μM, 100 nM MCP-1

Compound | MCP-1-induced BRET signal between CCR2-Rluc8 and β-arrestin2-Venus (CCR2-Rluc8 [1]) | MCP-1-induced BRET response, CCR2-Rluc8 and β-arrestin2-Venus (CCR2-Rluc8 [2]) | agonist-induced BRET, CCR2-Rluc8 and β-arrestin2-Venus (CCR2-Rluc8 [2]; 100 nM agonist)
CCCCC1=NC2(CCCC2)C(=O)N1Cc1ccc(-c2ccccc2-c2nn[nH]n2)cc1 [Irbesartan, 2-butyl-3-({4-[2-(2H-1,2,3,4-tetrazol-5-yl)phenyl]phenyl}methyl)-1,3-diazaspiro[4.4]non-1-en-4-one] | not Irbesartan substantially reduced | neither Irbesartan nor EXP3174, substantially blocked | 
Cc1ccc2c(c1)C1(CCN(CCc3nc(-c4ccccc4)oc3C)CC1)OC(=O)N2 [RS504393] | substantially reduced | substantially blocked | 
AngII: Angiotensin II peptide (DRVYIHPF; Angiotensin-2; UniProt P01019 25-32, looked up) |  |  | had no effect
